# Screening data deposited in PubChem BioAssay by National Center for Advancing Translational Sciences (NCATS).
# Mito fusion act – inhibitors of mitochondrial division or activators of mitochondrial fusion; S. cerevisiae fusion-defective mutant growth rescue, CellTiterGlo 48 h; Potency, µM (top dose mostly 46.1 µM), without a hit: at the highest dose growth rescue (activation), actives largely listed as activators; 0.23% of 320,000 active; further: potency means the concentration at half of the fitted maximal effect; % of control where 0% means no effect; nearly all actives have a fitted effect of over 45% in size
#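 Yeast fusion mutant, YPEG (non-fermentable carbon), compound, 48 h at 37C non-permissive; CellTiterGlo added, 10 min RT, luminescence read. Rescued growth = division inhibition.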
# Nrf2 ARE act – Nrf2 pathway activation | AREc32 ARE-luciferase reporter (MCF7-derived line), luminescence, 24 h | Potency, µM (top dose mostly 46.1 µM), inactives show at the top dose activation, actives largely listed as activators | 0.31% of 410,000 active | AID 624171; further: potency means the concentration at half of the fitted maximal effect; % of control where 0% means no effect; nearly all actives have a fitted effect of over 65% in size
#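 AREc32 cells carrying an ARE-driven firefly luciferase, 1000 cells/well in OPTI-MEM with 5% FBS, dosed after overnight attachment and incubated 24 hr at 37 deg C. Steady-Glo luminescence read after 30 min at RT.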
# Glioma ERSR ind – inducers of ER stress response in human glioma cells; U87-MG GRP78 promoter luciferase reporter, 16 h; Potency, µM, without a hit: at the top dose activation, usual class: activators; 0.02% of 420,000 active; further: potency means the concentration at half of the fitted maximal effect; series mostly up to about 76 µM; % of control where 0% means no effect; nearly all actives have a fitted effect of over 35% in size
#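 ERSR induction read as luciferase luminescence (Bright-Glo, 10 min at room temperature) in stably transfected human U87-MG glioma cells exposed to compounds for 16 h, using GRP78 as sensor.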
# A549 tox – kills or reduces viability of A549 cells in Nrf2 counter-screen | A549 ARE-Fluc cells, CellTiter-Fluor viability, 18-24 h | Potency, µM (doses to about 46 µM), inactives show at the top dose activity change, negative = cytotoxicity, usual class: inhibitors | 0.16% of 390,000 active | AID 504648; further: potency means the concentration at half of the fitted maximal effect; on the % scale 0 is the no-effect control and ±100 the full control effect
#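 A549 ARE-Fluc cells in 5% FBS OPTI-MEM, 5000 cells/well, rested 2 h then exposed to compounds in concentration-response for 18-24 h at 37 °C. Viability by CellTiter-Fluor fluorescence (Ex 405/Em 525) after 30 min; luciferase luminescence (BugLite, 15 min, RT) read afterwards.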
# Nrf2 inh – Nrf2 pathway inhibition; A549 ARE-Fluc reporter, luciferase luminescence, 18-24 h; 2.1% of 360,000 active; Potency, µM (series often up to 46 µM), without a hit: at the highest dose activity change, negative = inhibition, most hits filed as inhibitors; AID 504444; further: potency means the concentration at half of the fitted maximal effect; on the % scale 0 is the no-effect control and ±100 the full control effect; nearly all actives have a fitted effect of over 60% in size
#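 Two sequential reads on A549 ARE_Fluc cells exposed to compound for 18-24 h: a CellTiter-Fluor fluorescence read for viability, then a luciferase luminescence read for Nrf2/ARE activity.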
# miR-21 reporter – miR-21 reporter, rising signal | AID 2288 | HeLa miR-21 FLuc reporter, luciferase, 48 h | 340,000 tested, under 10 active | Potency, µM (doses to about 38.3 µM), for inactives: at the top dose reporter change, positive = more light; active = well fitted rising curve with a large enough effect; inconclusive = small, poorly fitted or top-dose-only effect; inactive = no such curve, though single readings can be large or run the other way;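 note: % of control where 0% means no effect; miR-21 action dims this reporter so a rising signal means less miR-21 action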
#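 HeLa cells endogenously expressing miR-21, stably carrying CMV-driven firefly luciferase with a downstream miR-21 binding site, 2000 cells/well. Titrations up to approximately 40 uM, 48 hours; luciferase luminescence read.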
# * marks the source's active call; other numbers are inactive results; ? = inconclusive; nt = no result. Rows were chosen to be rich in hits. Some 2.3% of all compounds tested hit in one or more screens of this group. The call rests on the fitted dose curve; in most records, active means well fitted curve in the direction sought with a large enough effect; inconclusive means small, poorly fitted or top-dose-only effect, or another doubt; inactive means no such curve, though single readings can be large; an effect the other way counts as inactive or inconclusive.
# Letter code: A = Mito fusion act; B = Nrf2 ARE act; C = Glioma ERSR ind; D = A549 tox; E = Nrf2 inh; F = miR-21 reporter
1: CC(=O)C1=C(C)NC(SCC(=O)c2cc(Cl)ccc2Cl)=C(C#N)C1c1ccco1 (configuration not stated)
  A = 23%; B = 23%; C = -1%; D = ?; E = 7.3µM*; F = 1%

2: OB(O)c1csc2ccccc12
  A = nt; B = nt; C = -2%; D = 7%; E = ?; F = nt

3: O=C(c1ccc(CSc2nc3ccncc3[nH]2)cc1)N1CCCCCC1
  A = 3%; B = 0%; C = -8%; D = -1%; E = -2%; F = 9%

4: O=C(c1ccc(CSc2nc3ccncc3[nH]2)cc1)N1CCN(c2cccc(Cl)c2)CC1
  A = 8%; B = -3%; C = -8%; D = -26%; E = 21µM*; F = 23%

5: Cc1cc(C(F)(F)F)n2nc(C(=O)O)c(Cl)c2n1
  A = 10%; B = 0%; C = -1%; D = -10%; E = -2%; F = -5%

6: COc1cc(/C=N/Nc2ccccn2)ccc1O
  A = -2%; B = 8.9µM*; C = 3%; D = -4%; E = ?; F = -53%

7: COc1cc(OC)cc(C(=O)Nc2ccc(S(=O)(=O)Nc3cnc4ccccc4n3)cc2)c1
  A = nt; B = -1%; C = -4%; D = 2%; E = 5%; F = nt

8: COc1cc(C(=O)Nc2ccc(S(=O)(=O)Nc3cnc4ccccc4n3)cc2)cc(OC)c1OC
  A = 5%; B = 4%; C = 32µM*; D = -19%; E = ?; F = 0%

9: COc1cc(C(=O)Nc2ccc(S(=O)(=O)Nc3nccc(C)n3)cc2)cc(OC)c1OC
  A = -12%; B = 1%; C = 32µM*; D = -3%; E = 2%; F = -4%

10: Oc1c(C=Nc2cccnc2)sc2ccccc12
  A = 1%; B = 11%; C = -2%; D = -13%; E = 16%; F = -25%

11: Oc1ccccc1N=Cc1sc2ccccc2c1Cl
  A = 15%; B = 11µM*; C = 0%; D = 0%; E = 9%; F = -3%

12: CN=Cc1sc2ccccc2c1O
  A = -2%; B = 5%; C = -1%; D = -30%; E = -11%; F = -8%

13: Oc1c(C=Nc2ccccc2)sc2ccccc12
  A = 5%; B = 14µM*; C = -9%; D = -4%; E = ?; F = -5%

14: Oc1c(C=NCc2ccncc2)sc2ccccc12
  A = 17%; B = 14µM*; C = 1%; D = -13%; E = 21%; F = -33%

15: COC(=O)c1c(NC(=O)CN2C(=O)NC3(CCCCC3C)C2=O)sc2c1CCC2 (configuration not stated)
  A = 19%; B = 0%; C = -4%; D = -14%; E = 16µM*; F = nt

16: CCOC(=O)c1c(NC(=O)CN2C(=O)NC3(CCCCC3C)C2=O)sc(C)c1CC (configuration not stated)
  A = 29%; B = 3%; C = -5%; D = -10%; E = ?; F = nt

17: COc1cc2nc(N(CCCN(C)C)C(=O)c3ccc(C(=O)c4ccccc4)cc3)sc2cc1OC
  A = -10%; B = 3%; C = 0%; D = -10%; E = 4%; F = nt

18: CCc1ccc2nc(N(CCCN(C)C)C(=O)c3ccc(C(=O)c4ccccc4)cc3)sc2c1
  A = -26%; B = -3%; C = -11%; D = ?; E = 13µM*; F = 18%

19: CCN(CC)c1ccc(Nc2cc3n(c(=O)n2)CCc2cc(OC)c(OC)cc2-3)cc1
  A = 3%; B = 4%; C = -3%; D = -4%; E = 16µM*; F = -8%

20: COc1cc2c(cc1OC)-c1cc(Nc3ccc(N(C)C)cc3)nc(=O)n1CC2
  A = 0%; B = 10%; C = 5%; D = -3%; E = ?; F = -38%

21: Cc1cccc(OCC(=O)Nc2ccc(N3CCN(C(=O)c4ccco4)CC3)cc2)c1
  A = 2%; B = 0%; C = -3%; D = -6%; E = 21µM*; F = 29%

22: Cc1cc(OCC(=O)Nc2ccc(N3CCN(C(=O)c4ccco4)CC3)cc2)cc(C)c1Cl
  A = 7%; B = -1%; C = -3%; D = -21%; E = 8.2µM*; F = -4%

23: CN(/N=C/c1ccccc1O)C(=S)c1ccccc1
  A = -9%; B = 7%; C = 4%; D = 1%; E = 7%; F = -22%

24: CN(N=Cc1ccccc1O)c1ccc2ccccc2n1
  A = nt; B = 4.5µM*; C = -2%; D = nt; E = nt; F = nt

25: COC(=O)c1sc(-c2ccccc2)cc1NC(C)=O
  A = 0%; B = 11%; C = 0%; D = 5%; E = -4%; F = -20%

26: COC(=O)c1sc(-c2cccs2)cc1NC(=O)/C=C/C(=O)O
  A = 0%; B = 16µM*; C = 7%; D = -7%; E = 11%; F = 3%

27: Cc1ccc(NC(=O)Cn2c(=O)n(-c3ccccc3)c(=O)c3ccc(C(=O)NCc4ccc5c(c4)OCO5)cc32)c(C)c1
  A = nt; B = 0%; C = -3%; D = -10%; E = 7.3µM*; F = -7%

# Structures listed so far with an aryl thioether with sulfur outside any ring (two):
# Letter code: A = Mito fusion act; B = Nrf2 ARE act; C = Glioma ERSR ind; D = A549 tox; E = Nrf2 inh; F = miR-21 reporter
3: O=C(c1ccc(CSc2nc3ccncc3[nH]2)cc1)N1CCCCCC1
  A = 3%; B = 0%; C = -8%; D = -1%; E = -2%; F = 9%

4: O=C(c1ccc(CSc2nc3ccncc3[nH]2)cc1)N1CCN(c2cccc(Cl)c2)CC1
  A = 8%; B = -3%; C = -8%; D = -26%; E = 21µM*; F = 23%
